For 13 molecules, IC50 results are on record in patent US20240360179A1, “STAPLED PEPTIDES AND METHODS THEREOF” (FOG PHARMACEUTICALS, INC., priority 2021, published 2024).

The chains behind the UniProt entries cited, without tags or fusion partners.
UniProt P35222, whole entry: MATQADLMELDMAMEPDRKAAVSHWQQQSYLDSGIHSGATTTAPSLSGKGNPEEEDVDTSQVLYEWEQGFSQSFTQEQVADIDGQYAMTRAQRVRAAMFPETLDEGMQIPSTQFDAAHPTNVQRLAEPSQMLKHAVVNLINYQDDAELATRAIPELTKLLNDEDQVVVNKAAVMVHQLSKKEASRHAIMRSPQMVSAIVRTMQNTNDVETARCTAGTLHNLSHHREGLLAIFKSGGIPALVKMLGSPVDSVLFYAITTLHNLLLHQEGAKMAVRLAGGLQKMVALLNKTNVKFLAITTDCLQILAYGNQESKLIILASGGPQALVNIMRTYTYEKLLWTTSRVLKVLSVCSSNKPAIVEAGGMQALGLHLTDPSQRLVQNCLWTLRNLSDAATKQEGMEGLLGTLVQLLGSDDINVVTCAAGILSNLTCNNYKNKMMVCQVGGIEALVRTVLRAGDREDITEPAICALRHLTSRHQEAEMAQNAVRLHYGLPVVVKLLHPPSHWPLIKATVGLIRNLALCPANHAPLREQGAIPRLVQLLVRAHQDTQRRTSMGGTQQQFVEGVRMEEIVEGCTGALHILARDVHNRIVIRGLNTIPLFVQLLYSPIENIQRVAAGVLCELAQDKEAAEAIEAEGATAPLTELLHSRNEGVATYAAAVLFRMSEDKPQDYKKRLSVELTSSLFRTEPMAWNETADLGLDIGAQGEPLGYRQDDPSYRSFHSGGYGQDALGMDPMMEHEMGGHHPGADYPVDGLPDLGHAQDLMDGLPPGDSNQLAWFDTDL

Where only a bound is given, the exact number is not on record here.

In test [1] the target is T1, full-length B-Catenin (Uniprot ID P35222) (Homo sapiens, UniProt P35222).
T1 construct: 10 nM full-length B-Catenin (Uniprot ID P35222)
As to the kind of experiment: biochemical. The class given is binding. The conditions noted are these: beta-Catenin FP IC50 (nM), competition fluorescence polarization. For orientation: Fluorescence polarisation rises when a labelled molecule tumbles more slowly, as on binding a larger partner.

Test [2] has as its target beta-catenin/TCF4 interaction (Homo sapiens, UniProt P35222). The test is described as follows: cell-based. Set-up: host or cells: HEK293. The note with it: NanoBRET Abs IC50 (uM). Background: BRET reads energy transfer from a luciferase to a nearby fluorophore.

As usually defined, the IC50 is the point on the concentration scale where inhibition reaches its midpoint.

For `CC(=O)N1CCC[C@]12CC=CCCCC1(CCCC=CCCCOC(=O)N3CC[C@@]4(C3)NC(=O)[C@H](CCCCNC(=O)C[C@@H](C(=O)N[C@@H](C)C(N)=O)NC(=O)[C@H](Cc3csc5ccccc35)NC(=O)[C@H](Cc3ccccc3C(F)(F)F)NC4=O)NC(=O)[C@H](Cc3ccccc3)NC(=O)[C@H](C)NC(=O)[C@H](C)NC(=O)[C@H](Cc3cccc(C(=O)O)c3)NC(=O)[C@H](CC(=O)O)NC1=O)NC(=O)[C@H](CC(C)(C)C)NC(=O)[C@H](CC(=O)O)NC2=O` (single isomer, unassigned) [I-58, Ac-PL3-Asp-Npg-B5-Asp-3COOHF-Ala-Ala-Phe-Lys*3-PyrS2-2F3MeF-BztA-AsnR*3-Ala-NH2], the IC50 was 50 to 200 nM in test [1] and more than 10 µM in test [2].
The like results for `CC(=O)N1CCC[C@]12CC=CCCCC1(CCCC=CCCCOC(=O)N3CC[C@@]4(C3)NC(=O)[C@H](CCCCNC(=O)CC[C@@H](C(=O)N[C@@H](C)C(N)=O)NC(=O)[C@H](Cc3csc5ccccc35)NC(=O)[C@H](Cc3ccccc3C(F)(F)F)NC4=O)NC(=O)[C@H](Cc3ccccc3)NC(=O)[C@H](C)NC(=O)C(C)(C)NC(=O)[C@H](Cc3cccc(C(=O)O)c3)NC(=O)[C@H](CC(=O)O)NC1=O)NC(=O)[C@H](CC(C)(C)C)NC(=O)[C@H](CC(=O)O)NC2=O` (single isomer, unassigned) [I-68, Ac-PL3-Asp-Npg-B5-Asp-3COOHF-Aib-Ala-Phe-Lys*3-PyrS2-2F3MeF-BztA-GlnR*3-Ala-NH2] were, in that order, less than 50 nM and 1.5 to 3 µM.
As to `CC(=O)N1CCC[C@]12CC=CCCCC1(CCCC=CCCCOC(=O)N3CC[C@@]4(C3)NC(=O)[C@H](CCCCNC(=O)CC[C@@H](C(=O)N[C@@H](C)C(N)=O)NC(=O)[C@H](Cc3csc5ccccc35)NC(=O)[C@H](Cc3ccccc3C(F)(F)F)NC4=O)NC(=O)[C@H](Cc3ccccc3)NC(=O)[C@H](C)NC(=O)[C@H](C)NC(=O)[C@H](Cc3cccc(C(=O)O)c3)NC(=O)[C@H](CC(=O)O)NC1=O)NC(=O)[C@H](CC1CCCCC1)NC(=O)[C@H](CC(=O)O)NC2=O` (single isomer, unassigned) [I-97, Ac-PL3-Asp-Cha-B5-Asp-3COOHF-Ala-Ala-Phe-Lys*3-PyrS2-2F3MeF-BztA-GlnR*3-Ala-NH2], the half-maximal inhibitory concentration (IC50) is less than 50 nM in test [1] and 1.5 to 3 µM in test [2].
Turning to `CC(=O)N1CCC[C@]12CC=CCCCC1(CCCC=CCCCOC(=O)N3CC[C@@]4(C3)NC(=O)[C@H](CCCCNC(=O)CC[C@@H](C(=O)N[C@@H](C)C(N)=O)NC(=O)[C@H](Cc3csc5ccccc35)NC(=O)[C@H](Cc3ccccc3C(F)(F)F)NC4=O)NC(=O)[C@H](Cc3ccccc3)NC(=O)[C@H](C)NC(=O)[C@H](CC(C)(C)C)NC(=O)[C@H](Cc3cccc(C(=O)O)c3)NC(=O)[C@H](CC(=O)O)NC1=O)NC(=O)[C@H](CC(C)(C)C)NC(=O)[C@H](CC(=O)O)NC2=O` (single isomer, unassigned) [I-99, Ac-PL3-Asp-Npg-B5-Asp-3COOHF-Npg-Ala-Phe-Lys*3-PyrS2-2F3MeF-BztA-GlnR*3-Ala-NH2], the IC50 is less than 50 nM in test [1] and more than 10 µM in test [2].
For the molecule `CC(=O)N1CCC[C@]12CC=CCCCC1(CCCC=CCCCOC(=O)N3CC[C@@]4(C3)NC(=O)[C@H](CCCCNC(=O)CC[C@@H](C(=O)N[C@@H](C)C(N)=O)NC(=O)[C@H](Cc3csc5ccccc35)NC(=O)[C@H](Cc3ccccc3C(F)(F)F)NC4=O)NC(=O)[C@H](Cc3ccccc3)NC(=O)[C@H](C)NC(=O)[C@H](CC3CCCCC3)NC(=O)[C@H](Cc3cccc(C(=O)O)c3)NC(=O)[C@H](CC(=O)O)NC1=O)NC(=O)[C@H](CC(C)(C)C)NC(=O)[C@H](CC(=O)O)NC2=O` (single isomer, unassigned) [I-101, Ac-PL3-Asp-Npg-B5-Asp-3COOHF-Cha-Ala-Phe-Lys*3-PyrS2-2F3MeF-BztA-GlnR*3-Ala-NH2], the IC50 in test [1] was less than 50 nM; in test [2], 1.5 to 3 µM.
The like results for `CC(=O)N1CCC[C@]12CC=CCCCC1(CCCC=CCCCOC(=O)N3CC[C@@]4(C3)NC(=O)[C@H](CCCCNC(=O)CC[C@@H](C(=O)N[C@@H](CC(C)C)C(N)=O)NC(=O)[C@H](Cc3csc5ccccc35)NC(=O)[C@H](Cc3ccccc3C(F)(F)F)NC4=O)NC(=O)[C@H](Cc3ccccc3)NC(=O)[C@H](C)NC(=O)[C@H](C)NC(=O)[C@H](Cc3cccc(C(=O)O)c3)NC(=O)[C@H](CC(=O)O)NC1=O)NC(=O)[C@H](CC(C)(C)C)NC(=O)[C@H](CC(=O)O)NC2=O` (single isomer, unassigned) [I-104, Ac-PL3-Asp-Npg-B5-Asp-3COOHF-Ala-Ala-Phe-Lys*3-PyrS2-2F3MeF-BztA-GlnR*3-Leu-NH2] were, in that order, less than 50 nM and 1.5 to 3 µM.
Turning to `CC(=O)N1CCC[C@]12CC=CCCCC1(CCCC=CCCCOC(=O)N3CC[C@@]4(C3)NC(=O)[C@H](CCCCNC(=O)CC[C@@H](C(=O)N[C@@H](CC(C)C)C(N)=O)NC(=O)[C@H](Cc3csc5ccccc35)NC(=O)[C@H](Cc3ccccc3C(F)(F)F)NC4=O)NC(=O)[C@H](Cc3ccccc3)NC(=O)[C@H](C)NC(=O)[C@H](C)NC(=O)[C@H](Cc3cccc(C(=O)O)c3)NC(=O)[C@H](CC(=O)O)NC1=O)NC(=O)[C@H](CC1CCCCC1)NC(=O)[C@H](CC(=O)O)NC2=O` (single isomer, unassigned) [I-106, Ac-PL3-Asp-Cha-B5-Asp-3COOHF-Ala-Ala-Phe-Lys*3-PyrS2-2F3MeF-BztA-GlnR*3-Leu-NH2], the values for the half-maximal inhibitory concentration (IC50) in test [1] and in test [2] were less than 50 nM and 1.5 to 3 µM, respectively.
As for `CC(=O)N1CCC[C@]12CC=CCCCC1(CCCC=CCCCOC(=O)N3CC[C@@]4(C3)NC(=O)[C@H](CCCCNC(=O)CC[C@@H](C(=O)N[C@@H](CC(C)C)C(N)=O)NC(=O)[C@H](Cc3csc5ccccc35)NC(=O)[C@H](Cc3ccccc3C(F)(F)F)NC4=O)NC(=O)[C@H](Cc3ccccc3)NC(=O)[C@H](C)NC(=O)[C@H](CC(C)(C)C)NC(=O)[C@H](Cc3cccc(C(=O)O)c3)NC(=O)[C@H](CC(=O)O)NC1=O)NC(=O)[C@H](CC(C)(C)C)NC(=O)[C@H](CC(=O)O)NC2=O` (single isomer, unassigned) [I-108, Ac-PL3-Asp-Npg-B5-Asp-3COOHF-Npg-Ala-Phe-Lys*3-PyrS2-2F3MeF-BztA-GlnR*3-Leu-NH2], the IC50 in test [1] was less than 50 nM; in test [2], more than 10 µM.
The like results for `CC(=O)N1CCC[C@]12CC=CCCCC1(CCCC=CCCCOC(=O)N3CC[C@@]4(C3)NC(=O)[C@H](CCCCNC(=O)CC[C@@H](C(=O)N[C@@H](CC(C)C)C(N)=O)NC(=O)[C@H](Cc3csc5ccccc35)NC(=O)[C@H](Cc3ccccc3C(F)(F)F)NC4=O)NC(=O)[C@H](Cc3ccccc3)NC(=O)[C@H](C)NC(=O)[C@H](CC3CCCCC3)NC(=O)[C@H](Cc3cccc(C(=O)O)c3)NC(=O)[C@H](CC(=O)O)NC1=O)NC(=O)[C@H](CC(C)(C)C)NC(=O)[C@H](CC(=O)O)NC2=O` (single isomer, unassigned) [I-110, Ac-PL3-Asp-Npg-B5-Asp-3COOHF-Cha-Ala-Phe-Lys*3-PyrS2-2F3MeF-BztA-GlnR*3-Leu-NH2] were, in that order, 50 to 200 nM and 3 to 10 µM.
The like results for `CC(=O)N1CCC[C@]12CC=CCCCC1(CCCC=CCCCOC(=O)N3CC[C@@]4(C3)NC(=O)[C@H](CCCCNC(=O)CC[C@@H](C(=O)N[C@@H](C)C(N)=O)NC(=O)[C@H](Cc3csc5ccccc35)NC(=O)[C@H](Cc3ccccc3C(F)(F)F)NC4=O)NC(=O)[C@H](Cc3ccccc3)NC(=O)[C@H](C)NC(=O)[C@H](C)NC(=O)[C@H](CN(CC(=O)O)CC(F)(F)F)NC(=O)[C@H](CC(=O)O)NC1=O)NC(=O)[C@H](CC(C)(C)C)NC(=O)[C@H](CC(N)=O)NC2=O` (single isomer, unassigned) [I-113, Ac-PL3-Asn-Npg-B5-Asp-TfeGA-Ala-Ala-Phe-Lys*3-PyrS2-2F3MeF-BztA-GlnR*3-Ala-NH2] were, in that order, less than 50 nM and more than 10 µM.
The like results for `CC(=O)N1CCC[C@]12CC=CCCCC1(CCCC=CCCCOC(=O)N3CC[C@@]4(C3)NC(=O)[C@H](CCCCNC(=O)CC[C@@H](C(=O)N[C@@H](C)C(N)=O)NC(=O)[C@H](Cc3csc5ccccc35)NC(=O)[C@H](Cc3ccccc3C(F)(F)F)NC4=O)NC(=O)[C@H](Cc3ccccc3)NC(=O)[C@H](C)NC(=O)C(C)(C)NC(=O)[C@H](CN(CC(=O)O)CC(F)(F)F)NC(=O)[C@H](CC(=O)O)NC1=O)NC(=O)[C@H](CC(C)(C)C)NC(=O)[C@H](CC(=O)O)NC2=O` (single isomer, unassigned) [I-120, Ac-PL3-Asp-Npg-B5-Asp-TfeGA-Aib-Ala-Phe-Lys*3-PyrS2-2F3MeF-BztA-GlnR*3-Ala-NH2] were, in that order, less than 50 nM and 1.5 to 3 µM.
As to `CC(=O)N1CCC[C@]12CC=CCCCC1(CCCC=CCCCOC(=O)N3CC[C@@]4(C3)NC(=O)[C@H](CCCCNC(=O)CC[C@@H](C(=O)N[C@@H](C)C(N)=O)NC(=O)[C@H](Cc3csc5ccccc35)NC(=O)[C@H](Cc3ccccc3C(F)(F)F)NC4=O)NC(=O)[C@H](Cc3ccccc3)NC(=O)[C@H](C)NC(=O)[C@H](C(C)C)NC(=O)[C@H](CN(CC(=O)O)CC(F)(F)F)NC(=O)[C@H](CC(=O)O)NC1=O)NC(=O)[C@H](CC(C)(C)C)NC(=O)[C@H](CC(=O)O)NC2=O` (single isomer, unassigned) [I-124, Ac-PL3-Asp-Npg-B5-Asp-TfeGA-Val-Ala-Phe-Lys*3-PyrS2-2F3MeF-BztA-GlnR*3-Ala-NH2], the IC50 in test [1] is less than 50 nM; in test [2], more than 10 µM.
Take `CC(=O)N1CCC[C@]12CC=CCCCC1(CCCC=CCCCOC(=O)N3CC[C@@]4(C3)NC(=O)[C@H](CCCCNC(=O)CC[C@@H](C(=O)NC(C)(C)C(N)=O)NC(=O)[C@H](Cc3csc5ccccc35)NC(=O)[C@H](Cc3ccccc3C(F)(F)F)NC4=O)NC(=O)[C@H](Cc3ccccc3)NC(=O)[C@H](C)NC(=O)[C@H](C)NC(=O)[C@H](CN(CC(=O)O)CC(F)(F)F)NC(=O)[C@H](CC(=O)O)NC1=O)NC(=O)[C@H](CC(C)(C)C)NC(=O)[C@H](CC(=O)O)NC2=O` (single isomer, unassigned) [I-126, Ac-PL3-Asp-Npg-B5-Asp-TfeGA-Ala-Ala-Phe-Lys*3-PyrS2-2F3MeF-BztA-GlnR*3-Aib-NH2]: the values for the 50% inhibitory concentration (IC50) in test [1] and in test [2] were less than 50 nM and 3 to 10 µM, respectively.
